Values of other authors as cited in patent publication US20040235712A1, “Coordination complexes having tethered therapeutic agents and/or targeting moieties, and methods of making and using the same” (priority 2003, published 2004).

Test system: estrogen receptor-positive, ER (+), cells
Details: ER (+) cells exposed to estrogen; cited from earlier work

estrogen [reference compound]
Sensitization of ER (+) cells towards cisplatin treatment: factor of two
